Source: patent publication US7741340B2 (dated 2010)

System: Fibroblasts established from Gaucher patients with N370S/N370S mutation
Assay: Chaperone rescue of residual GCase activity in Gaucher fibroblasts
Type: cell-based, human
Details: N370S homozygous fibroblasts, 4 days

For `OC[C@H]1CNC[C@@H](O)[C@@H]1O` [hydroxypiperidine, isofagomine], the “optimal concentration for chaperone activity” value was 30 µM.
